{"source": "patent US12599665B2", "about": "“Gene fusions for control of genetically modified cells” (A2 Biotherapeutics, Inc., priority 2020, dated 2026)", "origin": "cited, not measured here", "biological_target": "T1, Progesterone receptor (NR3C3) (Homo sapiens, UniProt P06401)", "T1 sequence (P06401 1-933)": "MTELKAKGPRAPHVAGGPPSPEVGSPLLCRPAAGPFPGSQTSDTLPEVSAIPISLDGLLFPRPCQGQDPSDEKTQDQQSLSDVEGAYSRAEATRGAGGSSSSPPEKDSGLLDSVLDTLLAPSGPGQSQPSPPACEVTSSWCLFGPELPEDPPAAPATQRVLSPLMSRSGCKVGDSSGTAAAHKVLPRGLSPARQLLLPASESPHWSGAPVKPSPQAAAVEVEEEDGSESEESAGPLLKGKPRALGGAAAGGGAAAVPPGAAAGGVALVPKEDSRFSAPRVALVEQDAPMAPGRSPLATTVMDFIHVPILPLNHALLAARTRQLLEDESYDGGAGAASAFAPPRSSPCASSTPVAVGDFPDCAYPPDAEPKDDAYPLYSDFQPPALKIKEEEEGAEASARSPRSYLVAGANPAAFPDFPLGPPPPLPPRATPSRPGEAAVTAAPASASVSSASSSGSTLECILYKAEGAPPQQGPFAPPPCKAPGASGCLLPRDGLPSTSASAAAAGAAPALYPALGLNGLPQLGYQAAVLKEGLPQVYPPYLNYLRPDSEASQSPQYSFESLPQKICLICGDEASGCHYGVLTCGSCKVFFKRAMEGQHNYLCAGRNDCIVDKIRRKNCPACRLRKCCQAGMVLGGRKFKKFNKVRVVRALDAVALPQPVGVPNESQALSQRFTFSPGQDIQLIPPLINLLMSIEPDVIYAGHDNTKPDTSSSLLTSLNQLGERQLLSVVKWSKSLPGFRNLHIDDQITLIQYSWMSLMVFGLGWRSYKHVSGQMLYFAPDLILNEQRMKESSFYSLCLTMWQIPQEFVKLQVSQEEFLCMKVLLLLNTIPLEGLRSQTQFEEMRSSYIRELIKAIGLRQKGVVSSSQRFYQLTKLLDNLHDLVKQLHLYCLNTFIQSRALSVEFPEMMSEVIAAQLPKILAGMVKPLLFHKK", "conditions": "antagonist, Table 2; mifepristone: Mixed; cited from earlier work"}
{"smiles": "CN(C)c1ccc([C@H]2C[C@]3(C)[C@@H](CC[C@]3(O)CCCO)[C@@H]3CCC4=CC(=O)CCC4=C32)cc1", "note": "[onapristone]", "values": [{"measurement": "pKi", "value": "(pKi 7.7),"}]}
